Values of other authors as cited in patent US8680094B2, “1, 4-benzoxazine compounds and derivatives thereof as therapeutic drugs for the treatment of neurodegenerative conditions” (Board of Regents, The University of Texas System, priority 2008, dated 2014).

The chains behind the UniProt entries cited, without tags or fusion partners.
UniProt P15056, whole entry: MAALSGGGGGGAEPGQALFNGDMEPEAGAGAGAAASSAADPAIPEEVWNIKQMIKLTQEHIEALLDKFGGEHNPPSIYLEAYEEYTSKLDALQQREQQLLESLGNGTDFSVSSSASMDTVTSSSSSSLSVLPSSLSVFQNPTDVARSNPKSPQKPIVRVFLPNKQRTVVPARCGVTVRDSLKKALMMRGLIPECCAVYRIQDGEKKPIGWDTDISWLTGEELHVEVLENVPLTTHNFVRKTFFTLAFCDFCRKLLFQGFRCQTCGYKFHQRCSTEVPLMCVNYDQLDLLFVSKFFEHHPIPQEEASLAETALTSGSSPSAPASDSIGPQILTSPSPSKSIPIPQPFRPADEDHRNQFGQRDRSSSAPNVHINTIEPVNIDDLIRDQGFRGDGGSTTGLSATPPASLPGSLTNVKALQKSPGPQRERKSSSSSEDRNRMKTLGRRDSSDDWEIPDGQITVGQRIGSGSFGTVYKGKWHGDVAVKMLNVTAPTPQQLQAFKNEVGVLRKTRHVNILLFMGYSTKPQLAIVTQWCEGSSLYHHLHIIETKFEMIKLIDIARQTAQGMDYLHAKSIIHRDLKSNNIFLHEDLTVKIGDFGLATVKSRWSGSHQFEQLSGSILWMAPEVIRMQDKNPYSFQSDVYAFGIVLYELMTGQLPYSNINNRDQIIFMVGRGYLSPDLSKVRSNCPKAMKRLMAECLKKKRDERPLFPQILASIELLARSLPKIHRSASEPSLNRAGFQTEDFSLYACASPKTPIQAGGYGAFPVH

Target: T1, B-Raf (Homo sapiens, UniProt P15056)
T1 construct: in some cases SignalChem; host or cells: Sf9 insect cells (baculovirus)
Details: stated for the reference compound, no value; cited from earlier work

O=C1Nc2ccc(I)cc2C1=Cc1cc(Br)c(O)c(Br)c1 [GW5074, 5-Iodo-3-[(3′,5′-dibromo-4′-hydroxyphenyl)methylene]-2-indolinone]
inhibition of B-Raf: inhibits B-Raf
